Laboratory results: PMC5828360, “Identification and characterization of highly versatile peptide-vectors that bind non-competitively to the low-density lipoprotein receptor for in vivo targeting and delivery of small molecules and protein cargos” (PLoS ONE, 2018)

Protein sequences, listed by entry. Tags and fused reporters are not part of them. Residues count along the entry.
UniProt P01130, 22-860: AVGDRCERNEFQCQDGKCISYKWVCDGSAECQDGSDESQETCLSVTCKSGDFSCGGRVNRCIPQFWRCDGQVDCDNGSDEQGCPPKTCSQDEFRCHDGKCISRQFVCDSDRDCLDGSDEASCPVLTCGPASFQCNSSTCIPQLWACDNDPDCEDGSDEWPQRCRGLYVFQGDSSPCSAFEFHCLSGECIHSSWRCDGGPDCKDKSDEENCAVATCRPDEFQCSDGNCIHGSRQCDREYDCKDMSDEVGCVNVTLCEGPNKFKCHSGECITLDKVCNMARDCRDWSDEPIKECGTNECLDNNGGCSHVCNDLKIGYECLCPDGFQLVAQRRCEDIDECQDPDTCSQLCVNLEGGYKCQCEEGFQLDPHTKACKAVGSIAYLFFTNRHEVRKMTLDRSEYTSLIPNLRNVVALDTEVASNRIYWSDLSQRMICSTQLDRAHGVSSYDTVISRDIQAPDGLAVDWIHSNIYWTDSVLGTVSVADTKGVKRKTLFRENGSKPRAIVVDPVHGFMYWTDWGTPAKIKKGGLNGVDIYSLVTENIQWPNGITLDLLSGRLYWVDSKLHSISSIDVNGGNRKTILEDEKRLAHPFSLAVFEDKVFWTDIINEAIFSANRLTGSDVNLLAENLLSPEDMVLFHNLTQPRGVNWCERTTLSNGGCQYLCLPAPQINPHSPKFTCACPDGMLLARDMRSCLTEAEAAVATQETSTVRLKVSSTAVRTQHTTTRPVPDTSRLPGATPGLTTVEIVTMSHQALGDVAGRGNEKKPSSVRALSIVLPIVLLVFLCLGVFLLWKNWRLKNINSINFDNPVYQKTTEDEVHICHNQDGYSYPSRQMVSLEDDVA
UniProt P01130, 22-788 limits assumed: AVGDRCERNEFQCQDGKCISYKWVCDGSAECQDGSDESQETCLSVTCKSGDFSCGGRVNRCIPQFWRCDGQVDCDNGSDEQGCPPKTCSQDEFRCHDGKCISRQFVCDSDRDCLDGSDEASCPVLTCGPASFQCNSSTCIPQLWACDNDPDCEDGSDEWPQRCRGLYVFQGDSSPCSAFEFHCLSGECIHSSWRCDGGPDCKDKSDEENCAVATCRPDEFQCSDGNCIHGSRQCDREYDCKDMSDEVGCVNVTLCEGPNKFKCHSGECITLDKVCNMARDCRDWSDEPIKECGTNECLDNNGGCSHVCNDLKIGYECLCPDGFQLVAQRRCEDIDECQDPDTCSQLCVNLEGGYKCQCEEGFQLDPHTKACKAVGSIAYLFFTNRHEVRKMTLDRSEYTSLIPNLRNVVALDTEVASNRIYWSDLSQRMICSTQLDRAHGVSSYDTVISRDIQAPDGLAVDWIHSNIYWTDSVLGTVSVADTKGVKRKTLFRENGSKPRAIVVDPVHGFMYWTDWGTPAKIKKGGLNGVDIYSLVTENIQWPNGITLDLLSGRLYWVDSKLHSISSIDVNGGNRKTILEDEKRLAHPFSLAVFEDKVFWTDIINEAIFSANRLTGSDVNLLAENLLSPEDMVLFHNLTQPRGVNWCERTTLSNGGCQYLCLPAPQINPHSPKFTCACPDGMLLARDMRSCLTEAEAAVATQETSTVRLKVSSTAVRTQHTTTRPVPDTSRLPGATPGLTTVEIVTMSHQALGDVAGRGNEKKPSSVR
UniProt P02786, whole entry: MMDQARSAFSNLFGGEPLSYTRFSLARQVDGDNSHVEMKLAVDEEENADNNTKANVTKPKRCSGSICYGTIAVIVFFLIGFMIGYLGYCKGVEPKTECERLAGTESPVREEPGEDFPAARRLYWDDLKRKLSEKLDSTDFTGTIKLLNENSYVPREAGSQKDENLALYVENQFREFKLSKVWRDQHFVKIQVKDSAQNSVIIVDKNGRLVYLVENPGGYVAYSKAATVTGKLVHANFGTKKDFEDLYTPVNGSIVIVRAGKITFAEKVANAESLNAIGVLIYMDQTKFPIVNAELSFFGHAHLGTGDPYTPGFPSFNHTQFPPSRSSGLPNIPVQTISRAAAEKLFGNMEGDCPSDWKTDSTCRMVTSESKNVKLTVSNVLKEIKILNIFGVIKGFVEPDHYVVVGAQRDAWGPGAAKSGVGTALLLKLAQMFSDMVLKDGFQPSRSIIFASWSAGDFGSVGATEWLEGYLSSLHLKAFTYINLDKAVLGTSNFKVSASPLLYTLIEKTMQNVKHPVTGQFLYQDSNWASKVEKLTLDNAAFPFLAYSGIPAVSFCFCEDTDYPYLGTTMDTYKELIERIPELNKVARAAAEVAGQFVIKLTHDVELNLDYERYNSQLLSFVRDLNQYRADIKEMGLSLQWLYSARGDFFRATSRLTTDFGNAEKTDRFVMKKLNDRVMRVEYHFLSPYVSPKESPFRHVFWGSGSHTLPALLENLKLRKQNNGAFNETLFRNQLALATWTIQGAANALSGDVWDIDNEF

How the values were obtained:
hLDLR [1] = biological target: T1, hLDLR (Homo sapiens, UniProt P01130); experiment: Image J quantification of co-localization with hLDLR-GFP; assay type: cell-based; design: Full length coding regions for hLDLR, mLDLR, rLDLR and hTfR were amplified by RT-PCR; expressed in transfected cells; settings: CHO-hLDLR-GFP, 10 μM, n = 3
hTfR = biological target: T2, hTfR (Homo sapiens, UniProt P02786); experiment: Immunocytochemistry on CHO-hTfR-EGFP / CHO-EGFP control cell lines; assay type: cell-based; settings: CHO-hTfR-EGFP or CHO-EGFP, 10 μM, 1 hr 37°C
T2 construct: Full length coding regions for hLDLR, mLDLR, rLDLR and hTfR were amplified by RT-PCR; expressed in transfected cells

hLDLR [2] = biological target: T1, hLDLR; experiment: Immunocytochemistry, binding/endocytosis on CHO-hLDLR-EGFP cells; assay type: cell-based; design: Full length coding regions for hLDLR, mLDLR, rLDLR and hTfR were amplified by RT-PCR; expressed in transfected cells; settings: 1 hr 37°C, 10 μM S-Tag or siRNA conjugates, Fc conjugates 100 nM to 0.1 nM
hLDLR [3] = biological target: T1, hLDLR; experiment: Surface Plasmon Resonance on immobilized hLDLR; design: purchased Sino Biological; settings: SPR Biacore T200, 25°C, HEPES pH7.4 running buffer, single-cycle kinetics, Langmuir 1:1 model, at least three independent experiments; (-) No binding

Row | percentage of hLDLR that co-localized with the S-Tag peptide (hLDLR [1]) | Kd (hLDLR [3]) [nM] | Compound | binding on control cell lines (hTfR) | binding/endocytosis on hLDLR expressing cells (hLDLR [2])
1 | under 10% |  | CCC(=O)N[C@H](C(=O)N[C@@H](CCC(=O)O)C(=O)N[C@@H](CCC(=O)O)C(=O)N[C@@H](CC(C)C)C(=O)N[C@@H](CCCNC(=N)N)C(=O)N[C@H](C(=O)N[C@@H](CCCNC(=N)N)C(=O)N[C@@H](CC(C)C)C(=O)N[C@@H](C)C(=O)N[C@@H](CO)C(=O)N[C@@H](Cc1c[nH]cn1)C(=O)N[C@@H](CC(C)C)C(=O)N[C@@H](CCCNC(=N)N)C(=O)N[C@@H](CCCCN)C(=O)N[C@@H](CC(C)C)C(=O)N[C@@H](CCCNC(=N)N)C(=O)N[C@@H](CCCCN)C(=O)N[C@@H](CCCNC(=N)N)C(=O)N[C@@H](CC(C)C)C(=O)N[C@@H](CC(C)C)C(=O)N[C@@H](CCCNC(=N)N)C(=O)N[C@@H](CC(=O)O)C(=O)N[C@@H](C)C(=O)NCC(=O)NCC(=O)NCC(=O)N[C@@H](CCCCN)C(=O)N[C@@H](CCC(=O)O)C(=O)N[C@H](C(=O)N[C@@H](C)C(=O)N[C@@H](C)C(=O)N[C@@H](C)C(=O)N[C@@H](CCCCN)C(=O)N[C@@H](Cc1ccccc1)C(=O)N[C@@H](CCC(=O)O)C(=O)N[C@@H](CCCNC(=N)N)C(=O)N[C@@H](CCC(N)=O)C(=O)N[C@@H](Cc1c[nH]cn1)C(=O)N[C@@H](CCSC)C(=O)N[C@@H](CC(=O)O)C(=O)N[C@@H](CO)C(N)=O)[C@@H](C)O)C(C)C)[C@@H](C)O [ApoE1-S-Tag] |  | 
2 |  |  | CSCC[C@H](NC(=O)[C@H](Cc1c[nH]cn1)NC(=O)[C@H](CCC(N)=O)NC(=O)[C@H](CCCNC(=N)N)NC(=O)[C@H](CCC(=O)O)NC(=O)[C@H](Cc1ccccc1)NC(=O)[C@H](CCCCN)NC(=O)[C@H](C)NC(=O)[C@H](C)NC(=O)[C@H](C)NC(=O)[C@@H](NC(=O)[C@H](CCC(=O)O)NC(=O)[C@H](CCCCN)NC(=O)CNC(=O)CNC(=O)CNC(=O)[C@H](CCCNC(=N)N)NC(=O)[C@@H]1CCCN1C(=O)[C@H](CC(=O)O)NC(=O)[C@@H]1CSSC[C@H](NC(=O)[C@H](CC(C)C)NC(=O)CNC(=O)[C@H](CO)NC(=O)[C@H](CC(=O)O)NC(C)=O)C(=O)N[C@@H](CCSC)C(=O)N2CCC[C@H]2C(=O)N[C@@H](CCCNC(=N)N)C(=O)N[C@@H](CC(C)C)C(=O)N[C@@H](CCCNC(=N)N)C(=O)NCC(=O)N1)[C@@H](C)O)C(=O)N[C@@H](CC(=O)O)C(=O)N[C@@H](CO)C(N)=O | no binding was observed | bound the CHO-hLDLR-EGFP cells
3 |  | > 80 | hIgG1Fc-SMCC- (Pr- cRPLGRMC-G-(CH2)2-S)2 (disulfide) [(VH4Sc)2-Fc, human IgG1-Fc chemically conjugated to scrambled VH4Sc peptide via sulfo-SMCC] |  | No uptake
4 |  |  | SiGLOCycloB-MCC-(Pr-cM"Thz"RLRG"Pen"-G-(CH2)2-S) (disulfide) [SiGLO CyclophilineB-VH4127] |  | bound the hLDLR expressing cell line and was endocytosed
